BindingDB's records for doi:10.1021/acs.jmedchem.5b00801 (Duquesne University, 2015)

Legend:
[1] = Binding affinity to human FRalpha expressed in Chinese hamster RT16 cells assessed as cell growth inhibition after 96 hrs by CellTiter-Blue assay in presence of 200 nM folic acid
[2] = Binding affinity to human FRbeta expressed in Chinese hamster D4 cells assessed as cell growth inhibition after 96 hrs by CellTiter-Blue assay in presence of 200 nM folic acid
[3] = Binding affinity to human PCFT expressed in Chinese hamster R2/PCFT4 cells assessed as cell growth inhibition after 96 hrs by CellTiter-Blue assay

| IC50 [1] [µM] | IC50 [3] [µM] | SMILES | IC50 [2] [µM] |
| --- | --- | --- | --- |
| > 1 | – | Nc1nc(N)c2c(CCCc3cc(C(=O)N[C@@H](CCC(=O)O)C(=O)O)cs3)coc2n1 | – |
| > 1 | > 1 | Nc1nc(N)c2c(CCCc3csc(C(=O)N[C@@H](CCC(=O)O)C(=O)O)c3)coc2n1 | – |

| SMILES | IC50 [1] [µM] | IC50 [3] [µM] | IC50 [2] [µM] |
| --- | --- | --- | --- |
| Nc1nc2[nH]c(CCCc3csc(C(=O)N[C@@H](CCC(=O)O)C(=O)O)c3)cc2c(=O)[nH]1 | 0.494 | – | 0.557 |
